These results are taken from publication PMC6591005 (Immunity, 2019).

The target of the test is GI.1 Virus like particles (Norovirus (strain Human/NoV/United …, UniProt Q83884)). In words: ELISA; EIA: plates coated with VLP at 0.25 μg/ml in PBS for 4 h, blocked in 5% dry milk in PBS-0.05% Tween-20; two-fold serial dilutions of mAb at 37°C; anti-human IgG-HRP; less than 0.2 OD at 2 μg/ml scored as negative. The note with it: both partners purified. For orientation: An ELISA detects its analyte on a solid surface through an enzyme-linked reagent.

B1: A1227 (recombinant IgG1) (antibody, V domains shown)
VH: QVQLVQSGGGMVQPGGSLSLSCAASGFTLSNYAMTWVRQAPGKGLEWVSSIGGSGGTTYYADSVKGRFTISRDSSMNTLYLQMSNLRAGDTAVYYCAKDKTRTLRLGYSGMDVWGQGTTVTVSS
VL: DIRLTQSPSSLSASVGDRVTITCRASQSISSYLNWYQQKPGKAPDLLIYGASSLQSGVPSRFSGSGSGTDFTLTISSLQPEDFGNYYCQQSFSTPRTFGQGTKVELK
Regarding B1, the binding result was “binds”.
